Patent US11370785B2, “Multicyclic compounds as farnesoid X receptor modulators” (BRISTOL-MYERS SQUIBB COMPANY, priority 2017, dated 2022)

Sequences of proteins named here, by UniProt entry; tags and fusion partners are left off. Residues count along the entry.
UniProt Q96RI1, 262-486 limits assumed: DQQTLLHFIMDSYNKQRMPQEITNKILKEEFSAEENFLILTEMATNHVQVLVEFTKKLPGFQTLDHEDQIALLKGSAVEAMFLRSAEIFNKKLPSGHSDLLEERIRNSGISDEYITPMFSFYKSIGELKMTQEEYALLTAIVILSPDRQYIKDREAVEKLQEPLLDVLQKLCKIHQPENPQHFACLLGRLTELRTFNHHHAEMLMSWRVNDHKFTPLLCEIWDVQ

These molecules were tested against human FXR (Homo sapiens, UniProt Q96RI1) (assay: transient human FXR/Gal4-luciferase reporter assay). Conditions: read-out: FXR EC50; Gal4-hFXR reporter in HEK293 cells; relative to 8 μM GW-4064.
Method: The exemplified compounds of the present invention were tested in the transient human FXR/Gal4-luciferase reporter assay, and assay results were reported in Table 1 together with other analytical data.
A Gal4-hFXR fusion construct reporter system was used as the primary assay to characterize compound activity. A construct including 5 copies of the Gal4 promoter response element upstream of a firefly luciferase reporter cDNA was stably expressed in HEK293 cells. This reporter cell line was maintained in Dulbecco's Modified Eagle's medium (DMEM; Gibco) supplemented with 1% penicillin-streptomycin (P/S) solution, 500 μg/mL Zeocin and 10% charcoal/dextran-treated fetal bovine serum (cs-FBS) at 37° C. in a humidified 5% CO2 atmosphere. Another plasmid was constructed in which the human cytomegalovirus promoter in the pcDNA3.1 vector directs the expression of the cDNA encoding a fusion protein comprised of the DNA binding domain from the Gal4 transcription factor fused to the ligand binding domain from human FXR.
The day prior to transfection, the reporter cells in culture are detached from the plate with trypsin and plated into a T75 flask at a sufficient density to achieve approximately 90% confluence the next morning. […] This protocol can be scaled up, and the transiently transfected cells can be cryopreserved in an assay-ready format.
For compound testing, 100 nL of the compounds (serial dilutions in DMSO) are dispensed with an Echo acoustic dispenser (Labcyte) into the wells of a Corning/Costar clear bottom 384-well white plate. The transfected cells are harvested, counted, and diluted such that 10-25,000 cells in 25 μL are plated into each well of the 384-well compound assay plate. […] The next morning 25 μL of Steady-Glo (Promega) are added to each well of the plate, the mixture is incubated for 15 min. with shaking, and luminescence is measured on an Envision (Perkin Elmer) plate reader. […]
In the case of `Cn1cc(C(=O)O)c2ccc(N3CCC4(CC(=Cc5c(-c6c(Cl)cccc6Cl)noc5C5CC5)C4)C3)nc21` (stereo not drawn), the EC50 is reported as 29 nM. With `O=C(O)c1ccc2cc(N3CCC4(CC(=Cc5c(-c6c(Cl)cccc6Cl)noc5C5CC5)C4)C3)ccc2n1` (stereo not drawn) the EC50 was 21 nM. `Cn1cc(C(=O)O)c2ccc(N3CCC4(CC(=Cc5c(-c6c(Cl)cccc6Cl)noc5C5CC5)C4)C3)cc21` (stereo not drawn) was tested, and the EC50 was 33 nM.
